These are literature values, as cited in US6310072A (priority 1995, dated 2001).

This data set has as its system μ-opioid receptor. The note with it: [3H]-DAMGO; compared with morphine; cited from earlier work.

Consider `COc1ccc2c3c1O[C@H]1C(=O)CC[C@@]4(O)[C@@H](C2)N(C)CC[C@]314` [oxycodone], for which the “Affinity for the μ-opioid receptor” value was “low compared with that of morphine”.
